Measured affinities in a library of Ab-14 heavy chain variants

Target peptide (SARS-CoV-2 spike, HR2 region): PDVDLGDISGINAS

Each scFv is VH, a (GGGGS)3 linker, VL, as in the parent Ab-14, and differs from it in the CDRs of the heavy chain only.
VH: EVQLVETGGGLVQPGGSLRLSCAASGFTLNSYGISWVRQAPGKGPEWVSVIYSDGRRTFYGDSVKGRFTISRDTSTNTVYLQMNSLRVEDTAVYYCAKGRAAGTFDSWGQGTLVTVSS
VL: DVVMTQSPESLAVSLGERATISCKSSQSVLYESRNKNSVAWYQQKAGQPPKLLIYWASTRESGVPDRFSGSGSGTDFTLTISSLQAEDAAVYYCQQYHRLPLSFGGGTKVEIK

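The parent was found by panning a naive human phage display library on the peptide. Library AAYL49 holds single substitutions and randomly drawn double and triple substitutions in the CDRs. In AlphaSeq, yeast of one mating type display the scFv and yeast of the other type display the target. Binding brings cells together so that they mate, and sequencing counts the barcode pairs among the diploids. Scores were corrected for input abundance and mapped to Kd with protein pairs of known affinity run in the same pool. Mating was done three times.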

Changes read parent residue, position, new residue, counted from the first residue of the VH shown.
This list gathers variants with a substitution at I34 (VH, numbered from residue 1).
Values are apparent Kd, the geometric mean of the replicates that gave a signal; lower means stronger binding.
An entry "not detected" has no value in the source: the pair was not observed among the diploids in any replicate. This suggests poor binding but is not conclusive.
For reference, the parent read 4.4 nM as the reference entry and 13 µM (one replicate of three) as a member of this library.
Background: pairings of library AAYL49 with three empty control strains gave a value in 15% of cases (median 11 µM, 5th percentile 680 nM). Values in that range, when seen in few replicates, are hard to tell from nonspecific mating. The control count says in how many pairings with the empty strains this scFv gave a signal.

changes	Kd	seen in	empty controls
I34T S35R Y52G	91 µM	2 of 3	2 of 9
I34Q V50A S53D	not detected	0 of 3	0 of 9
I34N G55K A102C	not detected	0 of 3	0 of 9
Y32P I34A F59N	2.7 µM	1 of 3	2 of 9
I34G S35K G61Y	not detected	0 of 3	0 of 9
N30A I34Y G61E	not detected	0 of 3	1 of 9
I34S S53N S63C	not detected	0 of 3	0 of 9
G26I I34V S63M	not detected	0 of 3	3 of 9
I34E R56E S63C	not detected	0 of 3	1 of 9
L29H I34R T104F	not detected	0 of 3	3 of 9
I34P G55K D106W	not detected	0 of 3	1 of 9
T28V I34R D54F	not detected	0 of 3	0 of 9
I34A	3.5 µM	2 of 3	0 of 9
I34C S35V	9.9 µM	2 of 3	3 of 9
I34S D54T V64L	not detected	0 of 3	0 of 9
I34C V50A F105V	not detected	0 of 3	1 of 9
I34Y F105Q S107Q	not detected	0 of 3	0 of 9
I34R T58I	4.9 µM	1 of 3	0 of 9
S31I I34R A102G	39 µM	1 of 3	0 of 9
I34P R100I G103Y	not detected	0 of 3	0 of 9
I34H G55T Y60E	not detected	0 of 3	0 of 9
G33P I34E Y52P	not detected	0 of 3	1 of 9
I34E	29 µM	2 of 3	0 of 9
Y32T I34M	1.9 µM	1 of 3	1 of 9
F27S I34R V50E	3.3 µM	1 of 3	1 of 9
I34R T58F F105Q	not detected	0 of 3	1 of 9
L29P I34K D106F	not detected	0 of 3	0 of 9
G33S I34Y T58W	2.5 µM	2 of 3	0 of 9
Y32C I34W R57H	4.2 µM	1 of 3	0 of 9
I34R I51R R56M	6.8 µM	2 of 3	2 of 9
I34Q R100C A101R	not detected	0 of 3	2 of 9
I34H D62V	2.1 µM	1 of 3	0 of 9
I34Y V50L G55M	not detected	0 of 3	1 of 9
G33R I34P G103Y	not detected	0 of 3	4 of 9
F27V I34N T58R	not detected	0 of 3	1 of 9
Y32S I34H K65H	not detected	0 of 3	0 of 9
N30Q I34Q T104W	not detected	0 of 3	1 of 9
I34L S53V G61Y	not detected	0 of 3	0 of 9
I34E D62N A101E	not detected	0 of 3	1 of 9
N30H G33W I34T	5.8 µM	1 of 3	0 of 9
G26Q I34R D106Y	44 µM	2 of 3	3 of 9
I34A S53G S107Q	120 µM	1 of 3	2 of 9
Y32V I34P D62L	420 µM	2 of 3	4 of 9
L29I N30I I34V	63 nM	3 of 3	1 of 9
G33V I34Q D62S	4.6 µM	2 of 3	2 of 9
G33P I34K D62A	26 µM	1 of 3	6 of 9
I34K S63R	30 µM	3 of 3	4 of 9
I34P	830 µM	1 of 3	0 of 9
I34E G55A V64F	2.0 µM	1 of 3	0 of 9
L29D I34C K65T	460 µM	1 of 3	2 of 9

For reference, 3 entries of the list once more:

{"changes": "S31I I34R A102G", "Kd": "39 µM", "seen in": "1 of 3", "empty controls": "0 of 9"}
{"changes": "I34K S63R", "Kd": "30 µM", "seen in": "3 of 3", "empty controls": "4 of 9"}
{"changes": "N30A I34Y G61E", "Kd": "not detected", "seen in": "0 of 3", "empty controls": "1 of 9"}

Reference: Engelhart et al. 2022, doi:10.1038/s41597-022-01779-4. File: FLAb, binding data.